Data on 26 compounds can be found in patent publication US8865911B2, “Compounds and their use as BACE inhibitors” (Astrazeneca AB, priority 2010, dated 2014).

Sequences of proteins named here, by UniProt entry; tags and fusion partners are left off. Residues count along the entry.
UniProt P56817, 22-460: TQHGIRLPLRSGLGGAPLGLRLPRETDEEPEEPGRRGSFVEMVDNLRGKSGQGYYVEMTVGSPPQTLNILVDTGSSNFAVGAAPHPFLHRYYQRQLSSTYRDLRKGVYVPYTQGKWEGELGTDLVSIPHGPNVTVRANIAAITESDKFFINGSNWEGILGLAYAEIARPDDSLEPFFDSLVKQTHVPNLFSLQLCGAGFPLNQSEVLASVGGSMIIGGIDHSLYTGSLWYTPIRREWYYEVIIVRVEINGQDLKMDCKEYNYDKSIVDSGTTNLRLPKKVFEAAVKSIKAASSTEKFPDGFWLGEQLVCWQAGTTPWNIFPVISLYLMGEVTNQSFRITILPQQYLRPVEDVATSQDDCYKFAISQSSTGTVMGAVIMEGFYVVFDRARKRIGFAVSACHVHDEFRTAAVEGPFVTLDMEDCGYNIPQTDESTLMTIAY

Assay [1] has as its target T1, human β-Secretase (Homo sapiens (Human), UniProt P56817). Put plainly: Diluted TR-FRET assay. The following applies: values marked ^a; 50 times less enzyme, 6.5 h reaction time at r.t. in the dark; read-out: IC50 in TR-FRET assay (IC50 from the diluted FRET assay). It is filed as biochemical. As to the method: (§1) The β-secretase enzyme used in the TR-FRET is prepared as follows: The cDNA for the soluble part of the human β-Secretase (AA 1-AA 460) was cloned using the ASP2-Fc10-1-IRES-GFP-neoK mammalian expression vector. The gene was fused to the Fc domain of IgG1 (affinity tag) and stably cloned into HEK 293 cells.
The robotic systems Biomek FX and Velocity 11 were used for all liquid handling and the enzyme and substrate solutions were kept on ice until they were placed in the robotic system. Enzyme (9 μl) was added to the plate then 1 μl of compound in dimethylsulphoxide was added, mixed and pre-incubated for 10 minutes. […] The reaction was stopped with the addition of Stop solution (7 μl, NaAcetate, pH 9). […] The dimethylsulphoxide control, instead of test compound, defined the 100% activity level and 0% activity was defined by wells lacking enzyme (replaced with reaction buffer).
On the technique in general: Time-resolved FRET reads energy transfer from a long-lived donor to a nearby acceptor.

In assay [2] the target is T1, human β-Secretase. Briefly: TR-FRET assay. The class given is biochemical. The following applies: sBACE-Fc, substrate (Europium)CEVNLDAEFK(Qsy7) 100 nM, pH4.5, 15 minutes at r.t. As to the method:
as §1
The robotic systems Biomek FX and Velocity 11 were used for all liquid handling and the enzyme and substrate solutions were kept on ice until they were placed in the robotic system. Enzyme (9 μl) was added to the plate then 1 μl of compound in dimethylsulphoxide was added, mixed and pre-incubated for 10 minutes. Substrate (10 μl) was then added, mixed and the reaction proceeded for 15 minutes at r.t. The reaction was stopped with the addition of Stop solution (7 μl, NaAcetate, pH 9). […] The dimethylsulphoxide control, instead of test compound, defined the 100% activity level and 0% activity was defined by wells lacking enzyme (replaced with reaction buffer).

For orientation: IC50 means the concentration needed to halve the response being measured. Turning to `CO[C@H]1CC[C@]2(CC1)Cc1ccc(-c3cc(C#N)cc(C(F)(F)F)c3)cc1[C@@]21N=C(C)C(N)=N1` [Example 85, 3-[(1r,1′R,4R)-4″-Amino-4-methoxy-5″-methyl-3′H-dispiro[cyclohexane-1,2′-indene-1′,2″-imidazol]-6′-yl]-5-(trifluoromethyl)benzonitrile], the IC50 on human β-Secretase [1] was found to be 0.0031 µM.
On to `[2H]C([2H])([2H])O[C@H]1CC[C@]2(CC1)Cc1ccc(-c3cncc(Cl)c3)cc1C21N=C(C)C(N)=N1` (some centres unmarked) [Example 119, (1r,4r)-6′-(5-Chloropyridin-3-yl)-5′-methyl-4-[(H3)methyloxy]-3′H-dispiro[cyclohexane-1,2′-indene-1′,2″-imidazol]-4″-amine], for which, on human β-Secretase [2], the IC50 came to 0.023 µM.
Turning to `CO[C@H]1CC[C@]2(CC1)Cc1ccc(-c3cncc(Br)c3)cc1C21N=C(C)C(N)=N1` (some centres unmarked) [Example 20aa, (1r,4r)-6′-(5-Bromopyridin-3-yl)-4-methoxy-5″-methyl-3′H-dispiro[cyclohexane-1,2′-indene-1′,2″-imidazol]-4″-amine], on human β-Secretase [1], the IC50 was 0.0016 µM.
As to `CC#Cc1cncc(-c2ccc3c(c2)C2(N=C(N)C(CC)=N2)[C@]2(CC[C@H](OC)CC2)C3)c1` (some centres unmarked) [Example 67, (1r,4r)-5″-Ethyl-4-methoxy-6′-[5-(prop-1-yn-1-yl)pyridin-3-yl]-3′H-dispiro[cyclohexane-1,2′-indene-1′,2″-imidazol]-4″-amine], at human β-Secretase [1], the half-maximal inhibitory concentration (IC50) was 0.002 µM.
Compound `CO[C@H]1CC[C@]2(CC1)Cc1ccc(OCCC(F)(F)F)cc1C21N=C(C)C(N)=N1` (some centres unmarked) [Example 20u, (1r,4r)-4-methoxy-5″-methyl-6′-(3,3,3-trifluoropropoxy)-3′H-dispiro[cyclohexane-1,2′-indene-1′,2″-imidazol]-4″-amine] registered an IC50 against human β-Secretase [2] of 0.022 µM.
As for `CO[C@H]1CC[C@]2(CC1)Cc1ccc(-c3cncc(Cl)c3)cc1[C@@]21N=C(C)C(N)=N1` (single isomer, unassigned) [Example 20e Isomer 1], on human β-Secretase [1], the half-maximal inhibitory concentration (IC50) was 0.0011 µM.
As to `CC#Cc1cncc(-c2ccc3c(c2)C2(N=C(C)C(N)=N2)C2(CCC(F)(F)CC2)C3)c1` (centres unmarked) [Example 28h, 4,4-Difluoro-5″-methyl-6′-[5-(prop-1-yn-1-yl)pyridin-3-yl]-3′H-dispiro[cyclohexane-1,2′-indene-1′,2″-imidazol]-4″-amine], the IC50 on human β-Secretase [1] was 0.0073 µM.
Turning to `[2H]C([2H])([2H])O[C@H]1CC[C@]2(CC1)Cc1ccc(-c3cc(Cl)cc(C#N)c3)cc1C21N=C(C)C(N)=N1` (some centres unmarked) [Example 125, 3-{(1r,4r)-4″-Amino-5″-methyl-4-[(^2H3)methyloxy]-3′H-dispiro[cyclohexane-1,2′-indene-1′,2″-imidazol]-6′-yl}-5-chlorobenzonitrile], at human β-Secretase [2], the IC50 came to 0.02 µM.
For the compound `CCC#Cc1cncc(-c2ccc3c(c2)C2(N=C(C)C(N)=N2)[C@]2(CC[C@H](OC)CC2)C3)c1` (some centres unmarked) [Example 72, (1r,4r)-6′-[5-(But-1-yn-1-yl)pyridin-3-yl]-4-methoxy-5″-methyl-3′H-dispiro[cyclohexane-1,2′-indene-1′,2″-imidazol]-4″-amine], at human β-Secretase [1], the IC50 worked out at 0.0023 µM.
As for `CO[C@H]1CC[C@]2(CC1)Cc1ccc(-c3cccc(Cl)c3Cl)cc1[C@@]21N=C(C)C(N)=N1` [Example 104, (1r,1′R,4R)-6′-(2,3-dichlorophenyl)-4-methoxy-5″-methyl-3′H-dispiro[cyclohexane-1,2′-indene-1′,2″-imidazol]-4″-amine], the IC50 against human β-Secretase [2] came out at 0.064 µM.
On the same count and under the same terms, the value for `CCO[C@H]1CC[C@]2(CC1)Cc1ccc(-c3cncc(C(F)(F)F)c3)cc1C21N=C(C)C(N)=N1` (some centres unmarked) [Example 131, (1r,4r)-4-ethoxy-5′-methyl-6′-[5-(trifluoromethyl)pyridin-3-yl]-3′H-dispiro[cyclohexane-1,2′-indene-1′,2″-imidazol]-4″-amine] was 0.044 µM.
As to `CC#Cc1cccc(-c2ccc3c(c2)C2(N=C(C)C(N)=N2)[C@]2(CC[C@H](OC)CC2)C3)c1` (some centres unmarked) [Example 20z, (1r,4r)-4-Methoxy-5″-methyl-6′-[3-(prop-1-yn-1-yl)phenyl]-3′H-dispiro[cyclohexane-1,2′-indene-1′,2″-imidazol]-4″-amine], the IC50 on human β-Secretase [1] is 0.0014 µM.
Regarding `CC#Cc1cncc(-c2ccc3c(c2)C2(N=C(N)C(CC)=N2)[C@]2(CC[C@H](OC)CC2)C3)c1` (single isomer, unassigned) [Example 68 Isomer 2, (1r,4r)-5″-ethyl-4-methoxy-6′-[5-(prop-1-yn-1-yl)pyridin-3-yl]-3′H-dispiro[cyclohexane-1,2′-indene-1′,2″-imidazol]-4″-amine], it took 9.97 µM to reach half-maximal inhibition against human β-Secretase [2] (IC50).
On human β-Secretase [2], `CO[C@H]1CC[C@]2(CC1)Cc1ccc(-c3cncc(COCC(F)(F)F)c3)cc1C21N=C(C)C(N)=N1` (some centres unmarked) [Example 82, (1r,4r)-4-Methoxy-5″-methyl-6′-{5-[(2,2,2-trifluoroethoxy)methyl]pyridin-3-yl}-3′H-dispiro[cyclohexane-1,2′-indene-1′,2″-imidazol]-4″-amine] had a 50% inhibitory concentration (IC50) of 0.066 µM.
`CC1=NC2(N=C1N)c1cc(Br)ccc1CC21CCC(F)(F)CC1` (centres unmarked) [Example 27, 6′-Bromo-4,4-difluoro-5″-methyl-3′H-dispiro[cyclohexane-1,2′-indene-1′,2″-imidazol]-4″-amine]: on human β-Secretase [2], the IC50 stood at 1.76 µM.
At human β-Secretase [2], `CO[C@H]1CC[C@]2(CC1)Cc1ccc(OCC3CCC3)cc1C21N=C(C)C(N)=N1` (some centres unmarked) [Example 126, (1r,4r)-6′-(Cyclobutylmethoxy)-4-methoxy-5″-methyl-3′H-dispiro[cyclohexane-1,2′-indene-1′,2″-imidazol]-4″-amine] gave an IC50 of 0.02 µM.
Consider `CO[C@H]1CC[C@]2(CC1)Cc1ccc(-c3cc(Cl)cc(C#N)c3)cc1C21N=C(C)C(N)=N1` (some centres unmarked) [Example 20d, 3-[(1r,4r)-4″-Amino-4-methoxy-5″-methyl-3′H-dispiro[cyclohexane-1,2′-indene-11′,2″-imidazol]-6′-yl]-5-chlorobenzonitrile], for which, on human β-Secretase [1], the IC50 turned out to be 0.0016 µM.
As to `CC#Cc1cncc(-c2ccc3c(c2)C2(N=C(N)C(CC)=N2)[C@]2(CC[C@H](OC)CC2)C3)c1` (single isomer, unassigned) [Example 68 Isomer 1, (1r,4r)-5″-ethyl-4-methoxy-6′-[5-(prop-1-yn-1-yl)pyridin-3-yl]-3′H-dispiro[cyclohexane-1,2′-indene-1′,2″-imidazol]-4″-amine], on human β-Secretase [1], the IC50 came out at 0.0012 µM.
As for `CO[C@H]1CC[C@]2(CC1)Cc1ccc(-c3ccc4[nH]cc(C)c4c3)cc1C21N=C(C)C(N)=N1` (some centres unmarked) [Example 121, (1r,4r)-4-Methoxy-5″-methyl-6′-(3-methyl-1H-indol-5-yl)-3′H-dispiro[cyclohexane-1,2′-indene-1′,2″-imidazol]-4″-amine], at human β-Secretase [2], the concentration for half-maximal inhibition (IC50) amounted to 0.037 µM.
Regarding `CO[C@H]1CC[C@]2(CC1)Cc1ccc(-c3cc(F)cc(C#N)c3)cc1C21N=C(C)C(N)=N1` (single isomer, unassigned; isomer 2) [Example 76 Isomer 2, 3-[(1r,4r)-4″-amino-4-methoxy-5″-methyl-3′H-dispiro[cyclohexane-1,2′-indene-1′,2″-imidazol]-6′-yl]-5-fluorobenzonitrile], at human β-Secretase [2], the IC50 worked out at 0.636 µM.
Still for that read-out and setting: the value for `CO[C@H]1CC[C@]2(CC1)Cc1ccc(C#N)cc1C21N=C(C)C(N)=N1` (some centres unmarked) [Example 79, (1r,4r)-4″-Amino-4-methoxy-5″-methyl-3′H-dispiro[cyclohexane-1,2′-indene-1′,2″-imidazole]-6′-carbonitrile] was 0.188 µM.
Still for that read-out and setting: the value for `CC1=NC2(CC3(CCCOC3)Oc3ccc(-c4ccc(F)c(Cl)c4)cc32)N=C1N` (single isomer, unassigned) [Example 46b Isomer 1, 6′-(3-Chloro-4-fluorophenyl)-5-methyl-5″,6″-dihydro-4′H-dispiro[imidazole-2,4′-chromene-2′,3″-pyran]-4-amine] was 0.18 µM.
Compound `COc1cccc(-c2ccc3c(c2)C2(CCO3)N=C(C)C(N)=N2)c1F` (centres unmarked) [Example 9, 6-(2-Fluoro-3-methoxyphenyl)-5′-methylspiro[chroman-4,2′-imidazol]-4′-amine] came in with an IC50 against human β-Secretase [2] of 1.68 µM.
In turn, `CO[C@H]1CC[C@]2(CC1)Cc1ccc(-c3cnc4[nH]cc(C)c4c3)cc1C21N=C(C)C(N)=N1` (some centres unmarked) [Example 116, (1r,4r)-4-Methoxy-5″-methyl-6′-(3-methyl-1H-pyrrolo[2,3-b]pyridin-5-yl)-3′H-dispiro[cyclohexane-1,2′-indene-1′,2″-imidazol]-4″-amine] registered an IC50 on human β-Secretase [2] of 0.026 µM.
On human β-Secretase [2], `CO[C@H]1CC[C@]2(CC1)Cc1ccc(C#CC(C)C)cc1C21N=C(C)C(N)=N1` (some centres unmarked) [Example 113, (1r,4r)-4-Methoxy-5″-methyl-6′-(3-methylbut-1-yn-1-yl)-3′H-dispiro[cyclohexane-1,2′-indene-1′,2″-imidazol]-4″-amine] had an IC50 of 0.024 µM.
Compound `CO[C@H]1CC[C@]2(CC1)Cc1ccc(C#CC3CCC3)cc1C21N=C(C)C(N)=N1` (some centres unmarked) [Example 112, (1r,4r)-6′-(Cyclobutylethynyl)-4-methoxy-5″-methyl-3′H-dispiro[cyclohexane-1,2′-indene-1′,2″-imidazol]-4″-amine] had an IC50 on human β-Secretase [2] of 0.022 µM.
